Results reported in the NIST ThermoML archive (doi:10.1021/je500918t).
Numbers after ± are expanded uncertainties.

What was measured:
[1] = Molar enthalpy of transition or fusion; settings: Crystal; DSC
[2] = Crystal; DTA

SMILES	Molar enthalpy of transition or fusion [1]	Normal melting temperature [2]
Nc1ccc(S(=O)(=O)Nc2ccc(Cl)c(Cl)c2)cc1 [4-amino-N-(3,4-dichlorophenyl)benzenesulfonamide]	7.36 ± 0.287 kcal/mol	224.8 ± 0.5 °C
Nc1ccc(S(=O)(=O)Nc2ccc(I)cc2)cc1 [4-amino-N-(4-iodophenyl)benzenesulfonamide]	8.7 ± 0.287 kcal/mol	195.6 ± 0.5 °C
O=S(=O)(Nc1cccnc1Cl)c1ccccc1 [N-(2-chloro-3-pyridinyl)benzenesulfonamide]	8.99 ± 0.287 kcal/mol	153.1 ± 0.5 °C
CCOc1ccc(NS(=O)(=O)c2ccc([N+](=O)[O-])cc2)cc1 [N-(4-ethoxyphenyl)-4-nitrobenzenesulfonamide]	9.3 ± 0.311 kcal/mol	172.1 ± 0.5 °C
